Values quoted from earlier work as cited in publication PMC6107785, “Thiodipeptides targeting the intestinal oligopeptide transporter as a general approach to improving oral drug delivery” (European Journal of Medicinal Chemistry, 2018).

Parameters: method as in PMID 2109643
Settings: ibuprofen 6 mg kg^−1 oral, rat; reference value ref 26; cited from earlier work

CC(C)Cc1ccc(C(C)C(=O)O)cc1 (stereo not shown) [Ibuprofen]
Relative F: 100 [26] %
